Data on three compounds can be found in patent US10112937B2, “P2X7 modulators and methods of use” (Janssen Pharmaceutica NV, priority 2013, dated 2018).

Amino acid sequences for entries named in this document (tags omitted). A change or cut given only in a name is not applied to a line headed by its entry.
UniProt Q99572: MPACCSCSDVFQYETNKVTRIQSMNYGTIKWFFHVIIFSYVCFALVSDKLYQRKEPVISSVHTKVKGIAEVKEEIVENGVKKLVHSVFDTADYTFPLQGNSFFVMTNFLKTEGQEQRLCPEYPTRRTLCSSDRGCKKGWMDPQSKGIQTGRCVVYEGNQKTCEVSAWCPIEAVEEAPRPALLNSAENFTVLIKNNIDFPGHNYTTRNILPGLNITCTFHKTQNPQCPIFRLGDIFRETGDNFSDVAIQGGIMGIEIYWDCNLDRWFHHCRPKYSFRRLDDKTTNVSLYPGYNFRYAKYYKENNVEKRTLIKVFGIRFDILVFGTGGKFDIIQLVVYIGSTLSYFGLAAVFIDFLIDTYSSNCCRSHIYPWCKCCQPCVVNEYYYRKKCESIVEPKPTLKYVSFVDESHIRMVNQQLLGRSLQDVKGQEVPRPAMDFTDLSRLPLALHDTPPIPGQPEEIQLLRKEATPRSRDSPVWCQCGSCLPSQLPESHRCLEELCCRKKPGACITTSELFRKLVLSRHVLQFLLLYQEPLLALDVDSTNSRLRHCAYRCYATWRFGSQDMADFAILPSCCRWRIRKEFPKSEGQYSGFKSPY
UniProt Q64663: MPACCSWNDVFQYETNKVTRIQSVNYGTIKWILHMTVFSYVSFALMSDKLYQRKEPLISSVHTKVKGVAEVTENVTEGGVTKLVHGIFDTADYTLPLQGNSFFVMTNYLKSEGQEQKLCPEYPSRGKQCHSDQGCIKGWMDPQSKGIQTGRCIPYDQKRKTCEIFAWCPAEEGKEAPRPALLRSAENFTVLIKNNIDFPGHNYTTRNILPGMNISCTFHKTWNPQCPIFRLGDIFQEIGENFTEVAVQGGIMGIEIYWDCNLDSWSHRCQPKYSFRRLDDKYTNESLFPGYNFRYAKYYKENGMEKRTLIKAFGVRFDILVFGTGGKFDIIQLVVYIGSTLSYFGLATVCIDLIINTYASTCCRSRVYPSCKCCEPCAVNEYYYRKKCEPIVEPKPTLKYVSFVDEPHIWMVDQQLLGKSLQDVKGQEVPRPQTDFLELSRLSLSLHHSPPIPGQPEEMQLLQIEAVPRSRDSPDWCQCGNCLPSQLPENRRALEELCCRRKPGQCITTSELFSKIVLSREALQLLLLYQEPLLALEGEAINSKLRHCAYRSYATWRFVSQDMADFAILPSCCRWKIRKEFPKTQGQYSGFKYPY

Assay [1] addresses T1, human P2X7 (Homo sapiens (Human), UniProt Q99572). Nature of the assay: Ca2+ flux (FLIPR) in 1321N1 cells expressing recombinant human P2X7.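 Note: cells loaded with Calcium-4 dye, preincubated with test compound for 30 min, fluorescence change read 180 s after agonist addition.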 The format is cell-based. Particulars: 1321N1 cells, recombinant human P2X7, 250 μM BzATP.
Assay [2] deals with T1, human P2X7. Nature of the assay: Radioligand binding ([3H]A-804598), human P2X7-1321N1 cell membranes. Particulars: human P2X7-1321N1 membranes, tritiated A-804598.
The next assay deals with rat P2X7 (Rattus norvegicus (Rat), UniProt Q64663). Put plainly: Ca2+ flux (FLIPR) in 1321N1 cells expressing recombinant rat P2X7.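 Note: Calcium-4 dye fluorescence change read 180 s after agonist addition, with cells preincubated 30 min with compound and dye in 96-well plates.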 Type of assay: cell-based. Conditions: recombinant rat P2X7, 250 μM BzATP.
In assay [3] the target is T1, human P2X7. Put plainly: P2X7 antagonism in human PBMCs (IL-1β release after LPS + Bz-ATP, ELISA). Type of assay: cell-based. Particulars: test compound 10 μM. As to the method: The in vitro affinity of the compounds of the invention for the rat and human P2X7 receptor was determined using a human peripheral blood mononuclear cells (PBMCs), a human whole blood assay, a Ca^2+ flux and radioligand binding assay in recombinant human P2X7 cells and recombinant rat P2X7 cells. In Tables 2 and 3, when the data cell has been left blank, it is intended to mean that the compound was not tested in that assay. The data represented in Tables 2 and 3 may represent a value from a single determination or when the experiment was run more than once, the data represent averages from between 2-12 runs.
Human blood was collected using a blood donor program. […] Cells were incubated for an additional 1.5 hours. […] Data are analyzed and graphed on Graphpad Prism 5. […] The IC50 for each compound is then uploaded into 3DX.
In general terms: An ELISA detects its analyte on a solid surface through an enzyme-linked reagent.

With `Cc1cccc(-n2nnc3c2CCN(C(=O)c2cccc(Cl)c2Cl)[C@H]3C)n1` (single isomer, unassigned) [Example 390, (S*)-(2,3-dichlorophenyl)(4-methyl-1-(6-methylpyridin-2-yl)-6,7-dihydro-1H-[1,2,3]triazolo[4,5-c]pyridin-5(4H)-yl)methanone], the IC50 – broadly, the midpoint of a concentration-inhibition curve – at human P2X7 [1] was found to be 0.0106 µM; on rat P2X7, 0.211 µM. On human P2X7 [2], the affinity corresponds to a Ki of 0.0138 µM.
In the case of `Cc1ccnc(-n2nnc3c2CCN(C(=O)c2ccnc(C(F)(F)F)c2F)C3C)c1` (stereo not drawn) [Example 355, (3-fluoro-2-(trifluoromethyl)pyridin-4-yl)(4-methyl-1-(4-methylpyridin-2-yl)-6,7-dihydro-1H-[1,2,3]triazolo[4,5-c]pyridin-5(4H)-yl)methanone], on human P2X7 [1], the IC50 came out at 0.0887 µM. Besides, on human P2X7 [2], the Ki (in general, the equilibrium dissociation constant of an inhibitor or competing ligand from its target) amounted to 0.0603 µM.
On to `Cc1ccnc(-n2nnc3c2CCN(C(=O)c2cccc(Cl)c2Cl)[C@H]3C)c1` (single isomer, unassigned) [Example 395, (S*)-(2,3-dichlorophenyl)(4-methyl-1-(4-methylpyridin-2-yl)-6,7-dihydro-1H-[1,2,3]triazolo[4,5-c]pyridin-5(4H)-yl)methanone], for which the “PBMC 10 μM (% control)” value on human P2X7 [3] is reported as 14.7 % control.
